Reference: PubChem BioAssay AID504700 (The Scripps Research Institute Molecular Screening Center, 2011)
The list shows a part of the results, in another mix than the full data. Some of these compounds have results that are not shown, active ones among them. The source made the active and inactive calls.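 Rule for the calls: active = activation above a cutoff set at the mean over all compounds plus 3 SD (cut at about 18% in these data); inactive = the rest.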

Amino acid sequences for entries named in this document (tags omitted).
UniProt P31323, whole entry, looked up: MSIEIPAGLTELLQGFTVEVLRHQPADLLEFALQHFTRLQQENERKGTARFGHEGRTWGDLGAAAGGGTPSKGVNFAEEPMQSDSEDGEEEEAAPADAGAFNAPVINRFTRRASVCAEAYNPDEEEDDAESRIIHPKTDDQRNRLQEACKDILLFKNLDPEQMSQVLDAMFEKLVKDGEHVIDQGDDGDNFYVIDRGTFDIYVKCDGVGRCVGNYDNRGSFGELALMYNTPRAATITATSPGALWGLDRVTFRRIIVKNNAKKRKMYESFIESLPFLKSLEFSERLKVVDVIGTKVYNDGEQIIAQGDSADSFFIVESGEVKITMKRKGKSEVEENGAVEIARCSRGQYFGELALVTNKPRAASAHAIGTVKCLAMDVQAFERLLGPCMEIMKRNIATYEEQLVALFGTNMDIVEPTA

Biological target: cAMP-dependent protein kinase catalytic subunit beta (Homo sapiens) + cAMP-dependent protein kinase type II-beta regulatory subunit (Homo sapiens) (UniProt P22694+P31323)
Test: activators of PKA-R2B holoenzyme, primary screen, biochemical, fluorescence polarization, Cy5-IP20, human (AID 504700);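 note: higher means more holoenzyme dissociation and a rise in polarization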
Details: PKA-R2B holoenzyme dissociation, at 11.4 µM, active compounds read high, 0% DMSO only, 100% 113 µM cGMP, R2B truncated from residue 108, S112A mutant

**Q.** COc1cccc(C(=O)NCC2(N3CCCCC3)CCCCC2)c1 was tested. Which activation did it give?
**A.** The activation was inactive: 3.05%.

**Q.** For COc1ccc(Cl)cc1C(=O)NCC1(N(C)C)CCCCC1, which activation is on record?
**A.** The activation was inactive: 0.04%.

**Q.** With O=C(NCC1(N2CCCCC2)CCCCC1)c1cccc(Cl)c1 as the compound, how does the activation read?
**A.** The activation was inactive: -7.66%.

**Q.** How did the activation turn out when CN(C)C1(CNC(=O)c2ccc(Br)cc2)CCCCC1 was run?
**A.** Its activation is inactive: 2.8%.

**Q.** COc1cc(C(=O)NCC2(N(C)C)CCCCC2)c([N+](=O)[O-])cc1OC was tested. Which activation did it give?
**A.** The activation was inactive: 6.18%.

**Q.** C=C(C)C#CC(O)(C(=O)OC1CCN(C)CC1)c1ccccc1 (stereo unspecified) was tested. Which activation did it give?
**A.** Its activation is inactive: 5.21%.

**Q.** COc1ccc(Br)c(C(=O)NCC2(N3CCCCC3)CCCCC2)c1 was tested. Which activation did it give?
**A.** The activation was inactive: -4.51%.

**Q.** With CC(C)Oc1ccc(C(=O)NCC2(N(C)C)CCCCC2)cc1 as the compound, how does the activation read?
**A.** The activation was inactive: 11.1%.

**Q.** How did the activation turn out when O=C(OCCN1CCCC1)C(O)(c1ccccc1)c1ccccc1 was run?
**A.** Its activation is inactive: 3.83%.

**Q.** With CN(C)c1cccc(C(=O)NCC2(N(C)C)CCCCC2)c1 as the compound, how does the activation read?
**A.** The activation was inactive: -4.99%.

**Q.** For O=C(OC1CN2CCC1CC2)C(CO)(c1ccccc1)c1ccccc1 (stereo unspecified), which activation is on record?
**A.** The activation was inactive: -0.32%.

**Q.** How did the activation turn out when CCN(CC)CC(C)C(C)OC(=O)C(O)(c1ccccc1)c1ccccc1 (stereo unspecified) was run?
**A.** The activation was inactive: -1.78%.

**Q.** For COc1cc(SC)ccc1C(=O)NCC1(N(C)C)CCCCC1, which activation is on record?
**A.** Its activation is inactive: -8.96%.

**Q.** With CC(C)N1C(=O)CC2(CCN(CCOC(=O)C(O)(c3ccccc3)c3ccccc3)CC2)C1=O as the compound, how does the activation read?
**A.** Its activation is inactive: 0.69%.

**Q.** How did the activation turn out when Cc1ccc(C(=O)NCC2(N3CCCCC3)CCCCC2)cc1 was run?
**A.** The activation was inactive: -2.74%.

**Q.** For O=C(NCC1(N2CCCCC2)CCCCC1)c1cc([N+](=O)[O-])ccc1Cl, which activation is on record?
**A.** Its activation is inactive: 10.8%.

**Q.** With CN1[C@@H]2CC[C@H]1CC(OC(=O)C(O)(c1ccccc1)c1ccccc1)C2 (stereo partly specified) as the compound, how does the activation read?
**A.** Its activation is inactive: -5.62%.

**Q.** Which activation does the source give for C=CCN1CCN(CCOC(=O)C(O)(c2ccccc2)c2ccccc2)CC1 here?
**A.** Its activation is inactive: -3.55%.

**Q.** O=C(NCC1(N2CCCCC2)CCCCC1)c1cc(F)c(F)cc1Cl was tested. Which activation did it give?
**A.** The activation was inactive: -8.49%.

**Q.** Which activation does the source give for COc1ccc(C(=O)NCC2(N(C)C)CCCCC2)cc1 here?
**A.** The activation was inactive: -3.99%.

**Q.** How did the activation turn out when Cc1cc(C(=O)NCC2(N3CCCCC3)CCCCC2)ccc1[N+](=O)[O-] was run?
**A.** The activation was inactive: -5.79%.

**Q.** With CCN1CCCC(OC(=O)C2(O)c3ccccc3C=Cc3ccccc32)C1 (stereo unspecified) as the compound, how does the activation read?
**A.** Its activation is inactive: -9.73%.

**Q.** With O=C(NCC1(N2CCCCC2)CCCCC1)c1cccc(Br)c1 as the compound, how does the activation read?
**A.** Its activation is inactive: 3.6%.

**Q.** With Cc1ccccc1C(=O)NCC1(N2CCCCC2)CCCCC1 as the compound, how does the activation read?
**A.** Its activation is inactive: 0.34%.

**Q.** For CN(C)C1CCCC1OC(=O)C(O)(c1ccccc1)c1ccccc1 (stereo unspecified), which activation is on record?
**A.** Its activation is inactive: -1.33%.

**Q.** Which activation does the source give for CN(C)c1ccc(C(=O)NCC2(N(C)C)CCCCC2)cc1 here?
**A.** The activation was inactive: 12.3%.
